## Antibody variant affinities, Ab-14 heavy chain, assay B

Target: peptide PDVDLGDISGINAS, taken from heptad repeat 2 (HR2) of SARS-CoV-2 spike.

Ab-14 is the parent antibody, in scFv form: VH, then the linker GGGGSGGGGSGGGGS, then VL. The light chain is unchanged in all variants.
VH: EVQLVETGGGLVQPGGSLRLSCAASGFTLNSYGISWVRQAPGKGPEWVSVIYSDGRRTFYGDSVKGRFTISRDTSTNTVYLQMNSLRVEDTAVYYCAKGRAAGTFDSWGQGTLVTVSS
VL: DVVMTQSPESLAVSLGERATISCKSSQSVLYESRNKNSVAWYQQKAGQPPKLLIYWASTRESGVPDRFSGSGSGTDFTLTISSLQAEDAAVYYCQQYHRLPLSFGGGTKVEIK

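The starting antibody came from a phage panning campaign against this peptide. This is the validation round: designs drawn from the data on random variants, tested in the same kind of assay. Their group label is 14H_En_Gibbs (En: ensemble of fine-tuned language models; Gibbs: Gibbs sampling). Affinity was read by AlphaSeq, a pooled yeast mating assay with surface-displayed partners. Binding brings cells together so that they mate, and sequencing counts the barcode pairs among the diploids. Scores were corrected for input abundance and mapped to Kd with protein pairs of known affinity run in the same pool. The assay was run in six technical replicates.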

Variants are written as CDR1, CDR2 and CDR3 of the heavy chain (limits as in the source). Parent: GFTLNSYGIS, VIYSDGRRTFYGDSVK, GRAAGTFDS. Scale: log10 of Kd in nM, estimated from mating counts; low values are strong binders. Where no diploid with the target was found in that replicate, the entry reads "ND": below detection, most likely a poor binder, though not proof of it.

CDR-H1,CDR-H2,CDR-H3,log10 Kd (nM) by replicate,signal with controls
GFDINEYGIS,VIYADGIRTVYANKFK,GDSGGIINF,ND ND ND ND ND ND,0/18
GFSLEEYGIS,VIYADGMRTNYAEAVK,GNFDLQEGY,ND ND ND ND ND ND,0/18
GFSLDEYGIS,VIYADGNRQVYIDKVK,GNYGGDFIE,ND ND ND ND ND ND,0/18
GFNLKEYGIS,VIYADGVRAQYAHSVK,GTYSGKFGM,ND ND ND ND ND ND,0/18
GFDINEYGIS,VIYADGVRRAYAQQVK,GHGEVVSMD,ND ND ND ND ND ND,2/18 (2.50)
GFKLDEYGIS,VIYADGHRVAYSNQVK,GDNMGFMVE,ND ND ND ND ND ND,0/18
GRSLDEYGIS,VIYADGVRQAYQDSVK,GNWSGTMMY,ND ND ND ND ND ND,0/18
GFNLDEYGIS,VIYADGMRASYINSAK,GNYGIVFTV,ND ND ND ND ND ND,1/18 (0.32)
GFDIDEQGIS,VIYADGLRVAYKDRVK,GAGSGVIDM,ND ND ND ND ND ND,0/18
GFELEEYGIS,VIYADGQRTFYADNVK,GGVDTDTRY,1.03 0.90 1.61 1.94 1.56 1.93,1/18 (2.91)
GADIQEYGIS,VIYADGIRTAYANNVK,GEYGSQFDE,ND ND ND ND ND ND,0/18
GFDLQEYGIS,VIYADGARKSYTNSVK,GVWGTTMSV,ND ND ND ND ND ND,1/18 (1.30)
GMDIEDYGIS,VIYADGKRKAYAQKFK,GHIGGTFGD,ND ND ND ND ND ND,0/18
GFDIEEYGIS,VIYADGRRKAYADSVK,GIDVYGKVV,ND ND ND ND ND ND,0/18
GKDIEEYGIS,VIYADGVRAAYADSVK,GINMDIMTD,ND ND ND ND ND ND,0/18
GFNLDEYGIS,VIYADGYRTMYIDAVK,GMNSGFGGT,ND ND ND 2.23 ND ND,0/18
GVEIDEYGIS,VIYADGRRRAYADDVK,GNDIGGFDL,ND ND ND ND ND ND,0/18
GEQIDEYGIS,VIYADGRRTAYSQSVK,GQNGGQIDV,ND ND ND ND ND ND,0/18
GFDFNEYGIS,VIYADGKRQAYADKVK,GGKNAFTDI,ND ND ND ND ND ND,0/18
GFNIDEYGIS,VIYADGQRLSYDDNVK,GGITGTFLN,ND ND ND 1.72 ND ND,1/18 (1.39)
GEDLLEYGIS,VIYADGIRVMYMNQVK,GNVAGFFTL,ND ND ND ND 1.04 ND,0/18
GFDLEDYGIS,VIYADGVRTAYSDNSK,GENGGALYT,ND ND ND ND ND ND,0/18
GFDLGEQGIS,VIYADGLRTAYATSFK,GEQGGFYGD,ND ND ND ND ND ND,0/18
GFDLDEYGIS,VIYADGMRTAYTQKVK,GRETDTNVV,ND ND ND ND ND ND,0/18
GFHLNEFGIS,VIYADGLRMHYANSVK,GEMAGTFTT,1.51 ND ND 1.49 1.76 1.52,0/18
GFNIDEFGIS,VIYADGKRSSVSDSVK,GQLGNAFDL,ND ND ND ND ND ND,0/18
GEDLMEYGIS,VIYADGVRFSYIDDVK,GNSTGFLDV,ND ND ND 1.72 ND ND,1/18 (1.76)
EFDLNEYGIS,VIYADGHRSFYADHVK,GQVAGIFFM,ND ND ND ND ND ND,0/18
FQLLDDYGIS,VIYADGKRVAYVADVK,GNVAGTFDM,1.47 1.57 1.69 1.88 0.73 2.42,0/18
GMDLNEYGIS,VIYADGRRTAYINQVK,GSQSDIVSS,ND ND ND ND ND ND,0/18
GFDIEEYGIS,VIYADGVRKAYQNSFK,GEVGGTFTN,0.36 0.41 0.09 0.29 1.20 0.71,1/18 (2.06)

The closing 5 entries, repeated:

CDR-H1	CDR-H2	CDR-H3	log10 Kd (nM) by replicate	signal with controls
GEDLMEYGIS	VIYADGVRFSYIDDVK	GNSTGFLDV	ND ND ND 1.72 ND ND	1/18 (1.76)
EFDLNEYGIS	VIYADGHRSFYADHVK	GQVAGIFFM	ND ND ND ND ND ND	0/18
FQLLDDYGIS	VIYADGKRVAYVADVK	GNVAGTFDM	1.47 1.57 1.69 1.88 0.73 2.42	0/18
GMDLNEYGIS	VIYADGRRTAYINQVK	GSQSDIVSS	ND ND ND ND ND ND	0/18
GFDIEEYGIS	VIYADGVRKAYQNSFK	GEVGGTFTN	0.36 0.41 0.09 0.29 1.20 0.71	1/18 (2.06)

As a blank, each scFv also met three strains without target: over all heavy chain designs, 1% of these pairings were detected, typically at 2.08 and seldom below 0.84. For each scFv, signals with the empty controls are counted beside the result, with their mean in brackets. The range of this assay differs from that of the first round, and the authors advise against merging the two. The authors' rule: three or more of the six replicates give a measured affinity, fewer mean a poor binder.

From the AlphaSeq antibody data of Li et al. 2023 (doi:10.1038/s41467-023-39022-2), copy in the FLAb collection.